Measured affinities in a library of Ab-14 heavy chain variants

Reference: Engelhart et al. 2022, doi:10.1038/s41597-022-01779-4. File: FLAb, binding data.

Target peptide (SARS-CoV-2 spike, HR2 region): PDVDLGDISGINAS

The variants keep the light chain, the linker and the frameworks of Ab-14 (scFv order VH, a 15-residue (Gly4Ser)3 linker, VL).
VH: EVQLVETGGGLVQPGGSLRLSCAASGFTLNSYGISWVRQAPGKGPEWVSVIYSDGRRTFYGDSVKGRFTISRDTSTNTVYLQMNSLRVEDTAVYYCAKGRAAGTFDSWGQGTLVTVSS
VL: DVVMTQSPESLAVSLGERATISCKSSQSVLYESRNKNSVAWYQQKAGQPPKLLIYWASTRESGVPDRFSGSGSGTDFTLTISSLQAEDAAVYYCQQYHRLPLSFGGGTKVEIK

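Phage display of a naive human antibody library on the peptide gave the parent. AAYL49 was designed without a model: most single CDR substitutions and a random sample of double and triple ones. The assay is AlphaSeq: two haploid yeast populations carry antibody and antigen on their surface. Pairs that bind mate more often; barcode pairs of the diploids are counted by sequencing. The ratio of observed to expected reads was calibrated, replicate by replicate, on BCL2-family standards whose Kd was known from biolayer interferometry. There are three technical replicates.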

Variants are written as CDR1, CDR2 and CDR3 of the heavy chain (limits as in the source). Parent: GFTLNSYGIS, VIYSDGRRTFYGDSVK, GRAAGTFDS.
Scale: log10 of Kd in nM, estimated from mating counts; low values are strong binders.
Where no diploid with the target was found in that replicate, the entry reads "nd": below detection, most likely a poor binder, though not proof of it.
Nonspecific signal, from three strains lacking the peptide, appeared in 15% of pairings of library AAYL49, centred on 4.06 (5% of these signals below 2.83); values are not corrected for it. Also given: how often the same scFv was detected with the empty control strains.

With GFTLNSMGIS / VIYCDGRRTFYGDSVK / GRAMGTFDS the result was nd, 2.76, nd (controls 1 of 9).
With GFTLNSYVVS / VIYSDGRRTFYGWSVK / GRAAGTFDS the result was nd, nd, nd (controls 0 of 9).
With GFTLNSYDIK / VIYSDGRRTFTGDSVK / GRAAGTFDS the result was nd, 4.48, 3.79 (controls 1 of 9).
With GFTLNSYCIS / VIYSDGRRTFYGDSVK / GAAAGTFTS the result was nd, nd, nd (controls 0 of 9).
With GFTLNSYGIS / VIYSDHRRTFYGESVK / GRAAGTFDS the result was nd, 3.20, nd (controls 4 of 9).
With GFTGNSYGIS / VIYSDGRRTEFGDSVK / GRAAGTFDS the result was 3.96, 3.51, nd (controls 3 of 9).
With GFTLNSYGIS / VIYSDGRHTFYGDSVK / GRAAGTFDS the result was 5.85, 3.52, nd (controls 1 of 9).
With GFTLNSYGIS / VIYSDQRRTFYGDFVF / GRAAGTFDS the result was nd, nd, nd (controls 0 of 9).
With GFTLNSYGIS / VIYTDGRRTFYGDSGK / GRAAGTFHS the result was nd, nd, nd (controls 0 of 9).
With GFTLNSYGIS / VIYWDGRRTFYGDSVK / GCAAGTFDR the result was nd, nd, nd (controls 1 of 9).
With GFTLNSYGIS / VIYSDGRRTFYNDSVK / GRAAYTFDS the result was nd, 3.63, nd (controls 1 of 9).
With GFTLNSYHIS / VIYSDGRRTFYGDSPK / GRAAGTFDS the result was nd, nd, nd (controls 1 of 9).
With GFTLNIYGIP / VIYSDGRRTFYGDSVK / GRAAGTMDS the result was 5.12, nd, nd (controls 3 of 9).
With GRTLNKYGII / VIYSDGRRTFYGDSVK / GRAAGTFDS the result was 4.09, 3.52, 5.48 (controls 3 of 9).
With GFWLNSYGII / VWYSDGRRTFYGDSVK / GRAAGTFDS the result was nd, 4.69, 4.73 (controls 2 of 9).
With GFTLNSYGIS / VIYSDTRRQFYGTSVK / GRAAGTFDS the result was nd, 3.10, 4.36 (controls 4 of 9).
With SFTLNSYGIS / VIYSDGRCTFYGDSVK / GRAAHTFDS the result was nd, nd, 4.55 (controls 6 of 9).
With GFTLKSYGIV / VIYSDGRRTFYGDSVK / GGAAGTFDS the result was 5.46, 2.85, nd (controls 0 of 9).
With GCTLNSYGIS / VIYSDGRRTFYGDSGK / LRAAGTFDS the result was nd, 2.64, nd (controls 0 of 9).
With GFTLNSYGIS / VIYSDGRRTFGGDSQK / GRAAGTFDS the result was nd, nd, 3.24 (controls 4 of 9).
With GFTLNSYGIS / VIYSDGRRTFYGDSVK / NQAANTFDS the result was nd, nd, nd (controls 2 of 9).
With GFWLNSYGIS / VIYFDGRRTFYGDSVK / GRASGTFDS the result was nd, 1.80, nd (controls 0 of 9).
With GRTLNSYGIS / VIYSDSRRTFYGDSVK / GRAGGTFDS the result was nd, nd, 2.54 (controls 0 of 9).
With GFTLNSYTIS / VIYSDGRRTWYGDSVK / GRAACTFDS the result was nd, nd, 3.16 (controls 0 of 9).
With GFVLTSYGIS / VIQSDGRRTFYGDSVK / GRAAGTFDS the result was nd, 3.89, 4.79 (controls 4 of 9).
With GFTLNSYGIS / VIYSSGRRTFYGDSYK / GQAAGTFDS the result was nd, nd, nd (controls 0 of 9).
With GFTLNSPGIS / VIYSDIQRTFYGDSVK / GRAAGTFDS the result was nd, nd, nd (controls 3 of 9).
With GFTLNSYGIS / FIYSDGRRTFYGDFVE / GRAAGTFDS the result was nd, nd, nd (controls 1 of 9).
With GGTLNSYGIS / VIYSDGRRTFYKDSVK / GRAAGTFIS the result was 4.43, nd, nd (controls 4 of 9).
With GFTLESYGIS / VIYSDGRRTFYGDAVK / GYAAGTFDS the result was 0.70, 1.19, 0.56 (controls 0 of 9).
With GFTCNSYGIS / VIYPDGRRTFYGDSVK / GRAAGTFVS the result was nd, nd, nd (controls 0 of 9).
With GFTLNSYGIS / VPYSDGRRTFYGDSIK / GRAFGTFDS the result was nd, nd, nd (controls 1 of 9).

Top 2 of the variants detected in all replicates, tightest first:

CDR-H1	CDR-H2	CDR-H3	replicates, log10 nM	signal with controls
GFTLESYGIS	VIYSDGRRTFYGDAVK	GYAAGTFDS	0.70, 1.19, 0.56	0 of 9
GRTLNKYGII	VIYSDGRRTFYGDSVK	GRAAGTFDS	4.09, 3.52, 5.48	3 of 9